The values that follow are results of earlier work, collected in patent US7415358B2, “Molecular toxicology modeling” (Ocimum Biosolutions, Inc., priority 2001, dated 2008).

This data set deals with tubulin. As to conditions: cited from earlier work.

For the compound `COc1cc2c(c(OC)c1OC)-c1ccc(OC)c(=O)cc1[C@@H](NC(C)=O)CC2` [COLCHICINE], the total tubulin levels entry is “total tubulin levels decreased twofold”.
